Source: US10172831B2, “Catalytic scavengers of organophosphates to potentiate butyrylcholinesterase (hBChE) as a catalytic bioscavenger and methods for making and using them” (dated 2019)

Protein sequences, listed by entry. Tags and fused reporters are not part of them. Lines headed by an entry give the natural chain unless they say otherwise; changes in a name come on top. Residues count along the entry.
UniProt P06276, 29-602 limits assumed: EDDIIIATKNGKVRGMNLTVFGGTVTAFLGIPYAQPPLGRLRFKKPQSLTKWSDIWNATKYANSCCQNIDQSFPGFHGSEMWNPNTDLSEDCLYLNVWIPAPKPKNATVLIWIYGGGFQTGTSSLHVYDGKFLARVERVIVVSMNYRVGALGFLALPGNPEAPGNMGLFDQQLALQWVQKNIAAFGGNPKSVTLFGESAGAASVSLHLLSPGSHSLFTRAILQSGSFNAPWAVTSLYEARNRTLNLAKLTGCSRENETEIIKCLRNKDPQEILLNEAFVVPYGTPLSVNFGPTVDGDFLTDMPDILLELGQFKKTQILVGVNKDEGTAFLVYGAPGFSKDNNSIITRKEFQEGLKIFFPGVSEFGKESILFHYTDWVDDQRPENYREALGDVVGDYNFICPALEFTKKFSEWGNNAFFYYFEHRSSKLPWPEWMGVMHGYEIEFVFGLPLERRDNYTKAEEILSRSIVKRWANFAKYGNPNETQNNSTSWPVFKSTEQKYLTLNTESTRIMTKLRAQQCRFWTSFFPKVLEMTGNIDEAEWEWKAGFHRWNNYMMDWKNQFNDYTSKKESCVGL
UniProt P22303: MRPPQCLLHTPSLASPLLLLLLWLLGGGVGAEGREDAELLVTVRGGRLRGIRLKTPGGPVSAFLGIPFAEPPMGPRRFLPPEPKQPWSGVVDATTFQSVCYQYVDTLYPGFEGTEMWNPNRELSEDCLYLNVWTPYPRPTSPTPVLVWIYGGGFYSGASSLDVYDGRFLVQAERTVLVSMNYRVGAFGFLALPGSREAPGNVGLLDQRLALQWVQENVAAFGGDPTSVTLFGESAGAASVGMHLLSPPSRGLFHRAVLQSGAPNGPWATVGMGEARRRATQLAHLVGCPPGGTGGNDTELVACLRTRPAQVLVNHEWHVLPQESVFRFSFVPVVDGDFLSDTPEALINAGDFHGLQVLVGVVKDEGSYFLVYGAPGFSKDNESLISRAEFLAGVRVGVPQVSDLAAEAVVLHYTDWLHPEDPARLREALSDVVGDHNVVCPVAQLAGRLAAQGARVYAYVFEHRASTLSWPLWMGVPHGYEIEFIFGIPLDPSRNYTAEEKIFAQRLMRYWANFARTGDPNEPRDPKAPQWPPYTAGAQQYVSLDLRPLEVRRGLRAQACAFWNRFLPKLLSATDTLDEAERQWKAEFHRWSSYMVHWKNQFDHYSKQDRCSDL

Tests used:
OP-hBChE conjugates [1] = target: T1, OP-hBChE conjugates (Homo sapiens, UniProt P06276); assay: Reactivation of OP-hBChE conjugates by 0.67 mM oxime (first-order rate constant kobs); settings: for reactivation rate constants (kobs), on average for the four OP-hBChE conjugates: 0.1 M phosphate buffer pH 7.4 at 37° C., sarin, cyclosarin, VX and paraoxon conjugates
OP-hBChE conjugates [2] = target: T1, OP-hBChE conjugates; settings: cited from earlier work
OP-hAChE conjugates = OP-hAChE conjugates (Homo sapiens, UniProt P22303); assay: Reactivation of OP-hAChE conjugates by 0.67 mM oxime (kobs); settings: sarin, cyclosarin, VX, paraoxon conjugates
OP-exposed mice = settings: in vivo; purified hBChE and TAB2OH; cited from earlier work

Molecule	reactivation rate constants (kobs), on average for the four OP-hBChE conjugates (OP-hBChE conjugates [1])	other results
CC(C)CCn1ccnc1C=NO	drastically reduced	
CC(CCn1ccnc1C=NO)N=[N+]=[N-] (centres unmarked)	counterproductive for reactivation for all OPs	
[N-]=[N+]=NCCCn1ccnc1C=NO	counterproductive for reactivation for all OPs	
CC(C)(C)CCn1ccnc1C=NO	Similarly efficient	
2-trimethylammonio-6-hydroxybenzaldehyde oxime		OP-hBChE reactivation potency of reference oximes (OP-hBChE conjugates [2]): relatively low reactivation potency; reactivation of OP conjugated hAChEs (OP-hAChE conjugates): poor OP-hAChE reactivator; protective effects of catalytic bioscavenger (hBChE plus oxime) (OP-exposed mice): relatively small
C[n+]1ccn(CCCc2ccccc2)c1C=NO.[I-]		change of reactivation of cyclosarin-hBChE conjugate, imidazolium vs tertiary analogue (OP-hBChE conjugates [1]; cyclosarin inhibited hBChE): about fifty times
